Assay results reported in patent US20020061599A1, “Method of identifying ligands of biological target molecules” (priority 1999, published 2002).

Molecular target: T1, [F289C;N312C] beta2-AR (Homo sapiens, UniProt P07550, F289C/N312C)
T1 construct: expressed in transfected cells; host or cells: COS-7
Assay: cAMP accumulation in COS-7 cells expressing metal-ion site engineered beta2-adrenergic receptor
Assay type: cell-based
Conditions: copper-chelator complex, read-out: EC50, stimulation of cAMP accumulation
Experimental: The effect of Cu(II) and copper-chelator complexes on stimulation of accumulation of intracellular cAMP was analyzed in COS-7 cells expressing the beta2-adrenoceptor.
Methods—Mutations were created in the beta2-AR cDNA by the PCR-directed overlap-extension method (Ho et al. (1989) Gene 77; 51-59). The beta2-AR cDNA was expressed by transient transfection into COS-7 cells. Two days after transfection the cells were assayed for intracellular levels of basal and ligand-induced cyclic AMP. The assay employed is essentially as described in Solomon et al (Anal. Biochem. (1974) 58: 541). Labelled adenine (2 ?Ci, [^3H]adenine, Amersham TRK311) was added to cells seeded in 6-well culture dishes. The following day the cells were washed twice wit HBS buffer [25 mM Hepes, 0.75 mM NaH2PO4, 140 mM NaCl (pH 7.2)] and incubated in buffer supplemented with 1 mM 3-isobutyl-1-methylxanthine (Sigma I-5879). Agonists were added and the cells were incubated for 30 min at 37° C. The assay was terminated by placing the cells on ice and aspiration of the buffer followed by addition of ice-cold 5% trichloroacetic acid containing 0.1 mM unlabelled camp (Sigma A-9062) and ATP (Sigma A-9501). Cyclic AMP was then isolated by application of the supernatant to a 50W-X4 resin (BioRad) and subsequently an alumina resin (A-9003; Sigma) eluting the cyclic AMP with 0.1 M imidazole (Sigma I-0125). […]

**Q.** “2,2′-di(benzimidazol-2-yl)-quinoline) [compound 85]” was tested. Which EC50 did it give?
**A.** 470 nM
